Experimental data: patent US6357163B1, “Use of nucleic acid analogues in diagnostics and analytical procedures” (priority 1991, dated 2002)

Test system: plasmid pT10 (dA10/dT10 tract cloned into the BamHI site in pUC19), BamHI cleavage
Experiment: Inhibition of restriction enzyme cleavage by PNA

TTT-TTT-TTT-T-Lys-NH2 [H-T10-LysNH2]
cleavage by BamHI (pT10 cleaved with BamHI and PvuII in the presence of PNA): inhibited
yield of PNA-dsDNA complex formation (plasmid pT10): 100%
